The values below come from patent publication US12478617B2, “Lipidated peptide inhibitors of interleukin-23 receptor” (JANSSEN BIOTECH, INC., priority 2021, dated 2025).

Assay [1] addresses IL-23R-expressing DB cells (Homo sapiens, UniProt Q5VWK5). Description: DB Cells IL23R pSTAT3 Cell Assay. It is filed as cell-based. Conditions: pSTAT3 (HTRF) in IL-23R-expressing DB cells, 0.5 nM IL-23, 30 minutes; Table 6 'IL-23 Cell Data'. The text has this: IL-23 is believed to play a central role in supporting and maintaining Th17 differentiation in vivo. This process is thought to be mediated primarily through the Signal Transducer and Activator of Transcription 3 (STAT3), with phosphorylation of STAT3 (to yield pSTAT3) leading to upregulation of RORC and pro-inflammatory IL-17. This cell assay examines the levels of pSTAT3 in IL-23R-expressing DB cells when stimulated with IL-23 in the presence of test compounds. Serial dilutions of test peptides and IL-23 (Humanzyme #HZ-1261) at a final concentration of 0.5 nM, were added to each well in a 96 well tissue culture plate (Corning #CLS3894). DB cells (ATCC #CRL-2289), cultured in RPMI-1640 medium (Thermo Scientific #11875093) supplemented with 10% FBS, were added at 5 X 10E5 cells/well and incubated for 30 minutes at 37° C. in a 5% CO2 humidified incubator. Changes in phospho-STAT3 levels in the cell lysates were detected using the Cisbio HTRF pSTAT3 (Tyr705) Cellular Assay Kit (Cisbio #62AT3PEH), according to manufacturer's Two Plate Assay protocol. Where not shown or it is marked as “0”, data was not yet determined.
(In general: TR-FRET usually uses a lanthanide donor and a delayed reading to cut background.)

Another assay addresses T1, IL-23R (Homo sapiens, UniProt Q5VWK5).
T1 construct: HEK293 cells containing IL-23R, IL-12RP31 and a firefly luciferase reporter gene driven by a STAT-inducible promoter (Promega); host or cells: HEK293
T1 sequence (Q5VWK5 24-629): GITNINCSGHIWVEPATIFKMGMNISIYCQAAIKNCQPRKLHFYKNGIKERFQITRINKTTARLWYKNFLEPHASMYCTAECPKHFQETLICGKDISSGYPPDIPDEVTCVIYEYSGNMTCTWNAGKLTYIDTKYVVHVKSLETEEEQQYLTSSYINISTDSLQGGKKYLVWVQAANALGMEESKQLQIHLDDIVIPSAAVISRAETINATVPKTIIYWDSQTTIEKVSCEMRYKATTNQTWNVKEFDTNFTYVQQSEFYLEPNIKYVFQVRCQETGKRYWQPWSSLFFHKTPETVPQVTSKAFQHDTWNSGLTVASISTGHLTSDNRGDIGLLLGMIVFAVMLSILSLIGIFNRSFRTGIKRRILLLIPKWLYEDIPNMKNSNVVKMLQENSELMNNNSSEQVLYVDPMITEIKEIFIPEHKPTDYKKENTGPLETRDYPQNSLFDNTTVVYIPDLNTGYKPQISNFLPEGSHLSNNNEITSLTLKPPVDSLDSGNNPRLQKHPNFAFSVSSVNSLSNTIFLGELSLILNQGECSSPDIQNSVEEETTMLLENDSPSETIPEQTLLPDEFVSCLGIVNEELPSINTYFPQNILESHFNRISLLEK
Put plainly: IL23R Reporter Assay. It is filed as cell-based. The following applies: HEK293 cells containing IL-23R, IL-12Rβ1 and STAT-inducible firefly luciferase reporter; 10 ng/mL IL-23 (EC90); 5 h at 37° C. In general terms: Reporter assays use an easily measured gene product as a stand-in for the process of interest.

A value given as a limit tells only on which side of the number the result lay.

In assay [1], “Ac-[Lys(PEG4)]-[Pen]-L-T-[Trp(7-Me)]-[Lys(Ac)]-[Pen]-F-[2Nal]-[aMeLeu]-L-N-[3Pal]-[Sarc]-NH2 [Example 216]” returned an IC50 of 0.215 nM.
The same measure, in the same setting: then “Ac-[Lys(PEG4)]-[Pen]-N-T-[Trp(7-Me)]-[Lys(Ac)]-[Pen]-F-[2Nal]-[aMeLeu]-L-N-[3Pal]-[Sarc]-NH2 [Example 215]”, with 0.0393 nM; and “Ac-[Lys(PEG12_OMe)]-[Pen]-L-T-[Trp(7-Me)]-[Lys(Ac)]-[Pen]-F-[2Nal]-[aMeLeu]-L-N-[3Pal]-[Sarc]-NH2 [Example 206]”, with 0.129 nM; and “Ac-[Lys(PEG12_OMe)]-[Pen]-N-T-[Trp(7-Me)]-[Lys(Ac)]-[Pen]-F-[2Nal]-[aMeLeu]-L-N-[3Pal]-[Sarc]-NH2 [Example 205]”, with 0.038 nM.
With “MeCO-K(PEG2PEG2 gE C18OH(c)-Pen*-N-T-7MeW-K(Ac)-Pen*-AEF-2Nal-THP-K(Ac)-N-3Pya-Sar-CONH2 [Example 139]”, inhibition at IL-23R was half-maximal at 0.0079 nM (IC50).
Same read-out and setting: then “MeCO-K(PEG2PEG2 gE SP6 C18OH)-Pen*-N-T-7MeW-K(Ac)-Pen*-AEF-2Nal-THP-K(Ac)-N-3Pya-Sar-CONH2 [Example 130]”, with 0.02 nM; and “MeCO-K(PEG2PEG2C18GolB)-Pen*-N-T-7MeW-K(Ac)-Pen*-AEF-2Nal-THP-K(Ac)-N-3Pya-Sar-CONH2 [Example 140]”, with 0.012 nM.
The same measure, in the same setting: then “MeCO-K(PEG2PEG2PPPgEC18OH)-Pen*-N-T-7MeW-K(Ac)-Pen*-AEF-2Nal-THP-K(Ac)-N-3Pya-Sar-CONH2 [Example 103]”, with 0.066 nM; and “MeCO-K(PEG2PEG2PgEC18OH)-Pen*-N-T-7MeW-K(Ac)-Pen*-AEF-2Nal-THP-K(Ac)-N-3Pya-Sar-CONH2 [Example 101]”, with 0.066 nM; and “MeCO-K(PEG2PEG2TrxgEC18OH)-Pen*-N-T-7MeW-K(Ac)-Pen*-AEF-2Nal-THP-K(Ac)-N-3Pya-Sar-CONH2 [Example 109]”, with 0.056 nM.
Turning to “MeCO-K(PEG2PEG2gEC10OH)-Pen*-N-T-7MeW-K(Ac)-Pen*-AEF-2Nal-THP-K(gEC18)-N-3Pya-Sar-CONH2 [Example 127]”, at IL-23R, the midpoint of inhibition, the IC50, lay at 0.17 nM.
On IL-23R, “MeCO-K(PEG2PEG2gEC16)-Pen*-N-T-7MeW-K(Ac)-Pen*-AEF-2Nal-THP-K(Ac)-N-3Pya-Sar-CONH2 [Example 81]” registered an IC50 of 0.012 nM.
The same measure, in the same setting: then “MeCO-K(PEG2PEG2gEC16OH)-Pen*-K(PEG2PEG2gEC16OH)-T-7MeW-K(Ac)-Pen*-AEF-2Nal-THP-K(Ac)-N-3Pya-Sar-CONH2 [Example 76]”, with 0.18 nM; and “MeCO-K(PEG2PEG2gEC16OH)-Pen*-N-T-7MeW-K(Ac)-Pen*-AEF-2Nal-THP-K(Ac)-N-3Pya-Sar-CONH2 [Example 25]”, with 0.0078 nM; and “MeCO-K(PEG2PEG2gEC16OH)-Pen*-N-T-7MeW-K(Ac)-Pen*-AEF-2Nal-THP-K(gEC18)-N-3Pya-Sar-CONH2 [Example 120]”, with 0.38 nM.
Same read-out and setting: then “MeCO-K(PEG2PEG2gEC18)-Pen*-N-T-7MeW-K(Ac)-Pen*-AEF-2Nal-THP-K(Ac)-N-3Pya-Sar-CONH2 [Example 82]”, with 0.013 nM; and “MeCO-K(PEG2PEG2gEC18OH)-Pen*-K(PEG2PEG2gEC18OH)-T-7MeW-K(Ac)-Pen*-AEF-2Nal-THP-K(Ac)-N-3Pya-Sar-CONH2 [Example 77]”, with 0.3 nM.
As for “MeCO-K(PEG2PEG2gEC18OH)-Pen*-N-T-7MeW-K(Ac)-Pen*-AEF-2Nal-THP-K(gEC18)-N-3Pya-Sar-CONH2 [Example 121]”, the IC50 against IL-23R turned out to be 0.9 nM.
Still for that read-out and setting: then “MeCO-K(PEG2PEG2gEC18OH)-Pen*-N-T-7MeW-K(Ac)-Pen*-AEF-2Nal-THP-K(gEc16)-N-3Pya-Sar-CONH2 [Example 98]”, with 1.24 nM; and “MeCO-K(PEG2PEG2gEC20OH)-Pen*-K(PEG2PEG2gEC20OH)-T-7MeW-K(Ac)-Pen*-AEF-2Nal-THP-K(Ac)-N-3Pya-Sar-CONH2 [Example 78]”, with 0.23 nM; and “MeCO-K(PEG2PEG2gETrxC18OH)-Pen*-N-T-7MeW-K(Ac)-Pen*-AEF-2Nal-THP-K(Ac)-N-3Pya-Sar-CONH2 [Example 71]”, with 0.081 nM.
On the same count and under the same terms, then “MeCO-K(PEG2PEG2gETrxC20OH)-Pen*-N-T-7MeW-K(Ac)-Pen*-AEF-2Nal-THP-K(Ac)-N-3Pya-Sar-CONH2 [Example 72]”, with 0.11 nM.
Same read-out and setting: then “MeCO-K(PEG2PEG2gEmXOH)-Pen*-N-T-7MeW-K(Ac)-Pen*-AEF-2Nal-THP-K(Ac)-N-3Pya-Sar-CONH2 [Example 110]”, with 0.0096 nM.
The substance “MeCO-K(PEG2PEG2gEmXOH)-Pen*-N-T-7MeW-K(Ac)-Pen*-AEF-2Nal-THP-K(gEC16)-N-3Pya-Sar-CONH2 [Example 113]” returned an IC50 at IL-23R of 1.11 nM.
On the same count and under the same terms, then “MeCO-K(PEG2PEG2gEpXOH)-Pen*-N-T-K(Ac)-Pen*-AEF-2Nal-THP-K(PEG2PEG2gEpXOH)-N-3Pya-Sar-CONH2 [Example 112]”, with 0.018 nM; and “MeCO-K(PEG2PEG2pgEC18OH)-Pen*-N-T-7MeW-K(Ac)-Pen*-AEF-2Nal-THP-K(Ac)-N-3Pya-Sar-CONH2 [Example 102]”, with 0.053 nM; and “MeCO-K(PEG2PEG2pppgEC18OH)-Pen*-N-T-7MeW-K(Ac)-Pen*-AEF-2Nal-THP-K(Ac)-N-3Pya-Sar-CONH2 [Example 104]”, with 0.066 nM.
The same measure, in the same setting: then “MeCO-K(PEG2gEC18OH)-Pen*-N-T-7MeW-K(Ac)-Pen*-AEF-2Nal-THP-K(Ac)-N-3Pya-N(4AmBenzyl)Gly-CONH2 [Example 86]”, with 0.061 nM.
“MeCO-K(PEG2gEC18OH)-Pen*-N-T-7MeW-K(Ac)-Pen*-AEF-2Nal-THP-K(Ac)-N-3Pya-Sar-CONH2 [Example 49]”: at IL-23R, the IC50 turned out to be 0.046 nM.
The same measure, in the same setting: then “MeCO-K(SP6 PEG2PEG2gE C18OH)-Pen*-N-T-7MeW-K(Ac)-Pen*-AEF-2Nal-THP-K(Ac)-N-3Pya-Sar-CONH2 [Example 132]”, with 0.031 nM; and “MeCO-K(gEC16)-Pen*-K(gEC16)-T-7MeW-K(Ac)-Pen*-AEF-2Nal-THP-K(Ac)-N-3Pya-Sar-CONH2 [Example 79]”, with 0.38 nM.
Still for that read-out and setting: then “MeCO-K(gEC16)-Pen*-N-T-7MeW-K(Ac)-Pen*-AEF-2Nal-THP-K(gEC18)-N-3Pya-Sar-CONH2 [Example 125]”, with 0.075 nM; and “MeCO-K(gEC18)-Pen*-K(gEC18)-T-7MeW-K(Ac)-Pen*-AEF-2Nal-THP-K(Ac)-N-3Pya-Sar-CONH2 [Example 80]”, with more than 16.6 nM; and “MeCO-K(gEC18)-Pen*-N-T-7MeW-K(Ac)-Pen*-AEF-2Nal-THP-K(gEC18)-N-3Pya-Sar-CONH2 [Example 126]”, with 0.16 nM.
“MeCO-K(gEC18OH)-Pen*-N-T-7MeW-K(Ac)-Pen*-AEF-2Nal-THP-K(Ac)-N-3Pya-N(4AmBenzyl)Gly-CONH2 [Example 87]”: the IC50 against IL-23R was 0.079 nM.
In the case of “MeCO-K(gEC18OH)-Pen*-N-T-7MeW-K(Ac)-Pen*-AEF-2Nal-THP-K(Ac)-N-3Pya-Sar-CONH2 [Example 48]”, the IC50 on IL-23R was found to be 0.045 nM.
For the substance “MeCO-K[PEG2PEG2gEDAP(pXOH)2]-Pen*-N-T-7MeW-K(Ac)-Pen*-AEF-2Nal-THP-K(Ac)-N-3Pya-Sar-CONH2 [Example 133]”, 0.031 nM corresponded to half-maximal inhibition against IL-23R (IC50).
Substance “MeCO-Pen*-N-T-7MeW-K(Ac)-Pen*-AEF-2Nal-THP-K(PEG6gEC16OH)-N-3Pya-Sar-CONH2 [Example 32]” returned a concentration for half-maximal inhibition (IC50) against IL-23R of 0.021 nM.
Same read-out and setting: then “MeCO-Pen*-N-T-7MeW-K(Ac)-Pen*-AEF-2Nal-THP-K(PEG24C18OH)-N-3Pya-Sar-CONH2 [Example 47]”, with 0.041 nM; and “MeCO-Pen*-N-T-7MeW-K(Ac)-Pen*-AEF-2Nal-THP-K(PEG24gEC16OH)-N-3Pya-Sar-CONH2 [Example 44]”, with 0.02 nM; and “MeCO-Pen*-N-T-7MeW-K(Ac)-Pen*-AEF-2Nal-THP-K(PEG24gEC18OH)-N-3Pya-Sar-CONH2 [Example 45]”, with 0.039 nM.
For “MeCO-r-Pen*-N-T-7MeW-K(Ac)-Pen*-AEF-2Nal-THP-K(PEG2PEG2gETrxC18OH)-N-3Pya-Sar-CONH2 [Example 58]”, half-maximal inhibition against IL-23R (IC50) was put at 0.094 nM.
Same read-out and setting: then “MeCO-r-Pen*-N-T-7MeW-K(Ac)-Pen*-AEF-2Nal-THP-K(PEG2PEG2gETrxC20OH)-N-3Pya-Sar-CONH2 [Example 59]”, with 0.18 nM.

Usually IC50 stands for the concentration needed to halve the response being measured. Lower therefore signals inhibition by little substance.
